Results as given in PubChem BioAssay AID848 (Columbia University Molecular Screening Center, 2007).
The list shows a part of the results, in another mix than the full data. The source made the active and inactive calls.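 The calls were made as follows: active = cell count reduction exceeding the screen mean by over 5 SD, scaled to untreated wells per plate (cut at about 78% in these data); inactive = the rest.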

Test: HUVEC nuclei count loss under TNFa – imaging, Hoechst nuclei count, cytotoxicity control for VCAM1 expression modulator project, primary screen (AID 848);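 also: cells counted after 24 h of TNF alpha exposure following the 1 h pretreatment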
Details: HUVEC TNFalpha-stimulated, at 2 µM, hits give high values
With `CCC(CO)(C(=O)OC1CN2CCC1CC2)c1ccccc1` (stereo not given) the cell count reduction was inactive: -8%.
With `CCOc1ncccc1C(=O)NCC1(N2CCOCC2)CCCCC1` the cell count reduction was inactive: 2.8%.
For `c1ccc(CN2CCC(Nc3ccccc3)CC2)cc1`, the cell count reduction was inactive: -18.6%.
With `N/C(=N\O)c1c(N)no[n+]1[O-]` the cell count reduction was inactive: -8.9%.
In the case of `CN1CCC(Nc2cccc(F)c2)CC1`, the cell count reduction is reported as inactive: 5.1%.
In the case of `O=C(NCC1(N2CCOCC2)CCCCC1)c1cc(=O)[nH]c2ccccc12`, the cell count reduction is reported as inactive: -16.5%.
With `N#CC1(Nc2ccccc2)CCN(CCc2ccccc2)CC1` the cell count reduction was inactive: -16.1%.
In the case of `COc1ccc(NC2CCN(CCc3ccccc3)CC2)c(OC)c1`, the cell count reduction is reported as inactive: -10.8%.
In the case of `O=C(OC1CN2CCC1CC2)C1c2ccccc2Oc2ccccc21` (stereo not given), the cell count reduction is reported as inactive: 0.8%.
With `O=C(NCC1(N2CCOCC2)CCCCC1)c1cc2ccccc2o1` the cell count reduction was inactive: 0.5%.
